{"source": "patent US8378093B2", "about": "“Explosives detection markers” (dated 2013)", "key": {"[1]": {"assay": "Binding constants between tetra-TTF calix[4]pyrrole 2a and nitrated aromatic guests by 1H NMR spectroscopic titration", "details": "guest binding to 2a, CDCl3, 298 K, 1:2 complexation, estimated errors <15%"}, "[2]": {"assay": "Binding constants between tetra-TTF calix[4]pyrroles and TNB by 1H NMR spectroscopic titration", "details": "binding to TNB, CDCl3, 298 K, 1:2 complexation, estimated errors <15%"}}}
{"compound": "2,4-dinitrophenole", "values": [{"measurement": "Ka^1", "setting": "[1]", "result": 39, "unit": "M⁻¹"}, {"measurement": "Ka^2", "setting": "[1]", "result": 76, "unit": "M⁻¹"}]}
{"compound": "COCCOCCOCCSC1=C(SCCOCCOCCOC)SC(=C2Sc3c4[nH]c(c3S2)C(C)(C)c2[nH]c(c3c2SC(=C2SC(SCCOCCOCCOC)=C(SCCOCCOCCOC)S2)S3)C(C)(C)c2[nH]c(c3c2SC(=C2SC(SCCOCCOCCOC)=C(SCCOCCOCCOC)S2)S3)C(C)(C)c2[nH]c(c3c2SC(=C2SC(SCCOCCOCCOC)=C(SCCOCCOCCOC)S2)S3)C4(C)C)S1", "values": [{"measurement": "Ka^1", "setting": "[2]", "result": 92, "unit": "M⁻¹"}, {"measurement": "Ka^2", "setting": "[2]", "result": 412, "unit": "M⁻¹"}]}
{"compound": "CC1(C)c2[nH]c(c3c2SC(=C2SC4=C(SCCCCCCCCCCOc5c6ccccc6c(c6ccccc56)OCCCCCCCCCCS4)S2)S3)C(C)(C)c2[nH]c(c3c2SC(=C2SC4=C(SCCCCCCCCCCOc5c6ccccc6c(c6ccccc56)OCCCCCCCCCCS4)S2)S3)C(C)(C)c2[nH]c(c3c2SC(=C2SC4=C(SCCCCCCCCCCOc5c6ccccc6c(c6ccccc56)OCCCCCCCCCCS4)S2)S3)C(C)(C)c2[nH]c1c1c2SC(=C2SC3=C(SCCCCCCCCCCOc4c5ccccc5c(c5ccccc45)OCCCCCCCCCCS3)S2)S1", "values": [{"measurement": "Ka^1", "setting": "[2]", "result": 200, "unit": "M⁻¹"}, {"measurement": "Ka^2", "setting": "[2]", "result": 1400, "unit": "M⁻¹"}]}
{"compound": "CC1(C)c2[nH]c(c3c2SC(=C2SC4=C(SCCOCCOCCOc5ccccc5OCCOCCOCCS4)S2)S3)C(C)(C)c2[nH]c(c3c2SC(=C2SC4=C(SCCOCCOCCOc5ccccc5OCCOCCOCCS4)S2)S3)C(C)(C)c2[nH]c(c3c2SC(=C2SC4=C(SCCOCCOCCOc5ccccc5OCCOCCOCCS4)S2)S3)C(C)(C)c2[nH]c1c1c2SC(=C2SC3=C(SCCOCCOCCOc4ccccc4OCCOCCOCCS3)S2)S1", "values": [{"measurement": "Ka^1", "setting": "[2]", "result": 110, "unit": "M⁻¹"}, {"measurement": "Ka^2", "setting": "[2]", "result": 520, "unit": "M⁻¹"}]}
{"compound": "O=[N+]([O-])c1cccc([N+](=O)[O-])c1", "values": [{"measurement": "Ka^1", "setting": "[1]", "result": 27, "unit": "M⁻¹"}, {"measurement": "Ka^2", "setting": "[1]", "result": 60, "unit": "M⁻¹"}]}
{"compound": "2,4,6-trinitrophenole", "values": [{"measurement": "Ka^1", "setting": "[1]", "result": 50, "unit": "M⁻¹"}, {"measurement": "Ka^2", "setting": "[1]", "result": 936, "unit": "M⁻¹"}]}
